The values that follow come from PMC3087300 (Bioorganic & medicinal chemistry, 2009).

Sequences of proteins named here, by UniProt entry; tags and fusion partners are left off. Residues count along the entry.
UniProt P07288, 25-261: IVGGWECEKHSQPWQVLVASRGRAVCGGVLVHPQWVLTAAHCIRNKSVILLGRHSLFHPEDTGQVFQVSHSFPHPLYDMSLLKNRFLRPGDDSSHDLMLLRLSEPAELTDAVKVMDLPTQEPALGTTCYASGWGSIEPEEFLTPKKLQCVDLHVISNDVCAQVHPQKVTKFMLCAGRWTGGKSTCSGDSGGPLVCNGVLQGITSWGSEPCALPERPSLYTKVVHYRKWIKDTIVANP

One assay deals with PSA (Homo sapiens, UniProt P07288).
The next assay has as its target chymotrypsin (Bos taurus, UniProt P00766). As to the kind of experiment: Chymotrypsin specificity assay. In kind it is biochemical. The note with it: read-out: Ki against chymotrypsin; data not shown.
The mark [1] stands for this setting: P2-P3 screen boronic acids and PSA imaging agents, Table 2.
Where [2] appears, read: read-out: Ki for PSA, boronic acid inhibitors.
[3] abbreviates: N-methylated boronic acids, Table 3.

Read-outs that look alike come from different tables or passages of the source.

The term Ki denotes the dissociation constant of the complex between target and ligand, obtained from inhibition or displacement. For Mu-SSQn(boro)L [Compound 45], the values for the Ki on PSA (setting [1]) and at PSA (setting [2]) were 25.3 ± 1.1 nM and 25 nM, respectively.

In the case of Z-SSKn(boro)L [Compound 43], on PSA (setting [1]), the Ki is 48.4 ± 3.6 nM.

Regarding Z-S ^* SK ^* L(boro)L [Compound 51], at PSA (setting [3]), the Ki was 5600 ± 100 nM.

With Z-SSQn(boro)L [Compound 44], the inhibition constant (Ki) on PSA (setting [1]) amounted to 27.5 ± 2.4 nM; on PSA (setting [2]), 27 nM; on chymotrypsin it was 211 nM.

On to Z-SSK ^* L(boro)L [Compound 48], for which, at PSA, the “fold increase in Ki for PSA relative to parent inhibitor 1” value turned out to be 38 fold. The Ki at PSA (setting [3]) amounted to 2500 ± 100 nM.
